Assay results as given in US20210332024A1, “MODULATORS OF PIN1 ACTIVITY AND USES THEREOF” (Yeda Research and Development Co. Ltd., priority 2019, published 2021).

Protein sequences, listed by entry. Tags and fused reporters are not part of them. Residues count along the entry.
UniProt Q13526, whole entry: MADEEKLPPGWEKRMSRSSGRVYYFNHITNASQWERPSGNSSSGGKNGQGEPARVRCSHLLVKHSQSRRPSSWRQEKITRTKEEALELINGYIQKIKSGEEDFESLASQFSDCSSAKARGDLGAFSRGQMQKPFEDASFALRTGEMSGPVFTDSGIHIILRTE
UniProt Q13526, 52-163 limits assumed: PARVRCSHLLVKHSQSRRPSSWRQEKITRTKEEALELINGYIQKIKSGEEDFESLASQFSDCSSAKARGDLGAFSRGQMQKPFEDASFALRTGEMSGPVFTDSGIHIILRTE

What was measured:
catalytic domain of Pin1 = catalytic domain of Pin1 (Homo sapiens, UniProt Q13526); experiment: Intact protein LC/MS labeling of Pin1; details: 2 μM Pin1 with 2 μM test compound for 1 hour at room temperature
Procedure: 993 compounds were transferred to a 384-well plate working copy by combining 0.5 μl of 20 mM stock solution of four or five compounds per well. The catalytic domain of Pin1 (2 μM) in 20 mM Tris, 75 mM NaCl, pH 7.5 was incubated with 200 μM for each compound and moderately shaken for 24 hours at 4° C. The reaction was stopped by the addition of formic acid to 0.4% (v/v) final concentration.
Liquid chromatography/mass spectroscopy runs were performed on an Acquity™ UPLC® H-class system (Waters) in positive ion mode using electrospray ionization (ESI). UPLC separation was performed on a C4 column (300 Å, 1.7 μM, […]). The column was held at 40° C., and the autosampler at 10° C. […]
For the screening 2 μl of each of the 448 click products as 50 μM DMSO stocks were transferred into a 384-well plate working plate. […] The mixtures were analyzed by liquid chromatography/mass spectroscopy analogously to the electrophile library incubations described herein. Hits were retrospectively analyzed by liquid chromatography/mass spectroscopy (LC-MS) to ensure reaction completion.
For each measured well, processed peaks were searched to match the mass of unlabeled protein or common small adducts of the unlabeled protein, which were found in the control sample or labeled protein. […] Data was analyzed using a python script for processing the MaxEnt-deconvoluted spectra. […]

GST-Pin1 = GST-Pin1 (Homo sapiens, UniProt Q13526); experiment: Fluorescence polarization (FP) competition assay; details: read-out: Ki (apparent), competition with fluorescein-labeled peptide, 250 nM GST-Pin1
Procedure: Binding affinity to Pin1 was determined using a fluorescence polarization assay to assess competition with an N-terminal fluorescein-labeled peptide (Bth-D-phosThr-Pip-Nal), which was obtained from JPT Peptide Technologies and Proteintech Group. The indicated concentrations of candidate compound were pre-incubated for 12 hours at 4° C. with a solution containing 250 nM glutathione S-transferase (GST)-Pin1, 5 nM of fluorescein-labeled peptide probe, 10 μg/ml bovine serum albumin, 0.01% Tween-20 and 1 mM DTT (dithiothreitol) in a buffer of 10 mM HEPES, 10 mM NaCl and 1% glycerol (pH 7.4). Measurements of FP were performed in black 384-well plates (Corning) using an EnVision™ reader. Apparent Ki values (under the tested conditions) obtained from the FP assay results were derived from the Kenakin Ki equation:
Kenakin Ki=(Lb)(EC50)(Kd)/(Lo)(Ro)+Lb(Ro−Lo+Lb−Kd) […]
Covalent labeling of Pin1 was confirmed to translate into enzyme inhibition via a fluorescence polarization (FP) competition assay using a FITC-labeled substrate mimetic peptide inhibitor, as well as a chymotrypsin-coupled PPIase assay, using procedures described in Wei et al. [Nat Med 2015, 21:457-466]. […]

[1] = Thiol reactivity assay (DTNB); details: 200 μM compound, pH 7.4, 37° C.
Procedure: 50 μM DTNB (dithionitrobenzoic acid) was incubated with 200 μM TCEP (tris(2-carboxytehyl)phosphine) in 20 mM sodium phosphate buffer (pH 7.4) with 150 mM NaCl, for 5 minutes at room temperature, in order to obtain TNB^2− (thionitrobenzoate dianion). 200 μM compounds were subsequently added to the TNB^2−, followed by immediate UV absorbance measurement at 412 nm (at 37° C.). The UV absorbance was acquired every 15 minutes for 7 hours. The assay was performed in a 384-well plate using a Spark™ 10M plate reader (Tecan). Background absorbance of compounds was subtracted by measuring the absorbance at 412 nm of each compound under the same conditions without DTNB. Compounds were measured in triplicates. The data was fitted to a second order reaction equation such that the rate constant k is the slope of ln([A][B0]/[B][A0]), where [A0] and [B0] are the initial concentrations of the compound (200 μM) and TNB^2− (100 μM) respectively, and [A] and [B] are the remaining concentrations as a function of time, as determined from the spectrometric measurement. Linear regression using Prism® software was performed to fit the rate against the first four hours of measurements. […]

With `O=C(CCl)N(CC1(C(F)(F)F)CC1)C1CCS(=O)(=O)C1` (stereo not shown) the “Labeling [%]” value (catalytic domain of Pin1) was 46%, the pKi (GST-Pin1) was 6.39 and the “Reactivity Log k” value [1] was −6.47. The Reactivity k [1] was 3.42e-07 M⁻¹ s⁻¹.

pKi: −log10 of the molar value.
